{
  "source": "PubChem BioAssay AID1259313",
  "about": "(Sanford-Burnham Center for Chemical Genomics, 2017)",
  "note": "This is a selection; strong and weak results do not stand in their true shares. Some structures show a salt or complex split into parts, the way the source records it. Active and inactive are the calls of the source.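 Rule for the calls: active = melting temperature shift of at least 10% of the positive control shift, at one fixed dose; inactive = the rest.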",
  "data": [
    {"tested_on": "Glutamate receptor ionotropic, NMDA 3A (GRIN3A) ligand-binding domain", "experiment": "binders of NR3A ligand-binding domain, primary screen, biophysical, differential scanning fluorimetry, uHTS (AID 1259313)", "conditions": "NR3A LBD differential scanning fluorimetry, at 25 µM, hits give high values, 0% = protein alone, 100% = glycine-bound protein", "values": [
      {"molecule": "CP(=O)(Nc1ccc(SC(F)(F)F)cc1)Oc1ccc(F)cc1", "note": "(stereo not given)", "Tm shift relative to glycine control": "inactive: 1.09%"},
      {"molecule": "CCOP(C)(=S)SCC(=O)NC(C)(CC)C(=O)O", "note": "(stereo not given)", "Tm shift relative to glycine control": "inactive: -3.66%"},
      {"molecule": "CP(=O)(Nc1ccc2c(c1)OCCO2)Oc1ccccc1", "note": "(stereo not given)", "Tm shift relative to glycine control": "inactive: -5.29%"},
      {"molecule": "Cc1ccccc1NP(C)(=O)Nc1ccccc1C", "Tm shift relative to glycine control": "inactive: -5.26%"},
      {"molecule": "COc1ccc(OP(C)(=O)Nc2cccc(Br)c2)cc1", "note": "(stereo not given)", "Tm shift relative to glycine control": "inactive: 0.51%"},
      {"molecule": "COc1ccc(NP(C)(=O)Oc2ccccc2OC)cc1", "note": "(stereo not given)", "Tm shift relative to glycine control": "inactive: -1.34%"},
      {"molecule": "CN(C)CCOC(=O)C(O)(c1ccccc1)C1CCCCC1", "note": "(stereo not given)", "Tm shift relative to glycine control": "inactive: -0.9%"},
      {"molecule": "O=[N+]([O-])c1cc([N+](=O)[O-])c(NCC2CCS(=O)(=O)C2)c([N+](=O)[O-])c1", "note": "(stereo not given)", "Tm shift relative to glycine control": "inactive: -2.72%"},
      {"molecule": "Cc1cc(-c2cccc3ccccc23)c(C)cn1.O=[N+]([O-])c1cc([N+](=O)[O-])c(O)c([N+](=O)[O-])c1", "Tm shift relative to glycine control": "inactive: -7.14%"},
      {"molecule": "O=[N+]([O-])c1ccc(OP2(=O)COCCO2)cc1", "note": "(stereo not given)", "Tm shift relative to glycine control": "inactive: 0.78%"},
      {"molecule": "Cc1c(C(c2ccc3c(c2)OCO3)c2c(C)n(C)n(-c3ccccc3)c2=O)c(=O)n(-c2ccccc2)n1C.O=[N+]([O-])c1cc([N+](=O)[O-])c(O)c([N+](=O)[O-])c1", "Tm shift relative to glycine control": "inactive: -0.93%"},
      {"molecule": "COc1ccc(OP(C)(=O)Nc2ccc(SC(F)(F)F)cc2)cc1", "note": "(stereo not given)", "Tm shift relative to glycine control": "inactive: -0.68%"},
      {"molecule": "CCOC(=O)c1ccc(NP(C)(=O)Oc2ccc(F)cc2)cc1", "note": "(stereo not given)", "Tm shift relative to glycine control": "inactive: -4.29%"},
      {"molecule": "CCN(CC)CCCOC(=O)C(O)(c1ccccc1)C1CCCCC1", "note": "(stereo not given)", "Tm shift relative to glycine control": "inactive: 0%"},
      {"molecule": "Cc1c([N+](=O)[O-])cc([N+](=O)[O-])c(Br)c1[N+](=O)[O-]", "Tm shift relative to glycine control": "inactive: -2.36%"},
      {"molecule": "O=[N+]([O-])c1cc([N+](=O)[O-])c(OC2CCCCC2O)c([N+](=O)[O-])c1", "note": "(stereo not given)", "Tm shift relative to glycine control": "inactive: -0.88%"},
      {"molecule": "CCCCCOc1ccc(NP(C)(=O)Oc2ccc(Cl)cc2Cl)cc1", "note": "(stereo not given)", "Tm shift relative to glycine control": "inactive: -5.89%"},
      {"molecule": "CP(=O)(Nc1ccccc1)Oc1ccc(F)cc1", "note": "(stereo not given)", "Tm shift relative to glycine control": "inactive: -2.52%"},
      {"molecule": "CC(C)c1ccc(OP(C)(=O)Nc2ccc(SC(F)(F)F)cc2)cc1", "note": "(stereo not given)", "Tm shift relative to glycine control": "inactive: -28%"},
      {"molecule": "CP(=O)(Nc1ccccc1F)Oc1ccccc1", "note": "(stereo not given)", "Tm shift relative to glycine control": "inactive: -2.66%"},
      {"molecule": "O=C(OCCN1CCN(CCOCc2ccccc2)CC1)C(O)(c1ccccc1)c1ccccc1", "Tm shift relative to glycine control": "inactive: 0.86%"},
      {"molecule": "O=C(OC1CN2CCC1CC2)c1ccc([N+](=O)[O-])cc1", "note": "(stereo not given)", "Tm shift relative to glycine control": "inactive: -1.91%"},
      {"molecule": "COc1ccc2c(c1O)-c1c(O)c(OC)cc3c1[C@H](C2)[N+](C)(C)CC3.O=[N+]([O-])c1cc([N+](=O)[O-])c([O-])c([N+](=O)[O-])c1[O-]", "Tm shift relative to glycine control": "inactive: 1.74%"},
      {"molecule": "COc1ccccc1OP(C)(=O)Nc1cccc(Br)c1", "note": "(stereo not given)", "Tm shift relative to glycine control": "inactive: -2.15%"},
      {"molecule": "Cc1cc(C)cc(OP(C)(=O)Nc2ccc(C)cc2C)c1", "note": "(stereo not given)", "Tm shift relative to glycine control": "inactive: -12.6%"},
      {"molecule": "CCOC(=O)c1ccc(NP(C)(=O)Oc2cc(C)cc(C)c2)cc1", "note": "(stereo not given)", "Tm shift relative to glycine control": "inactive: 6%"},
      {"molecule": "Cc1cc(C)cc(OP(C)(=O)Nc2ccccn2)c1", "note": "(stereo not given)", "Tm shift relative to glycine control": "inactive: 0%"},
      {"molecule": "CP(=O)(Nc1cccc(Br)c1)Oc1ccccc1", "note": "(stereo not given)", "Tm shift relative to glycine control": "inactive: -6.95%"},
      {"molecule": "Cc1ccc(C)c(NP(C)(=O)Oc2ccccc2)c1", "note": "(stereo not given)", "Tm shift relative to glycine control": "inactive: 0.35%"},
      {"molecule": "O=C(O)c1cccc(Nc2c([N+](=O)[O-])cc([N+](=O)[O-])cc2[N+](=O)[O-])c1", "Tm shift relative to glycine control": "inactive: -0.41%"},
      {"molecule": "CC1=NCCc2c1[nH]c1ccccc21.O=[N+]([O-])c1cc([N+](=O)[O-])c(O)c([N+](=O)[O-])c1", "Tm shift relative to glycine control": "inactive: -0.71%"},
      {"molecule": "CCOC(=O)C(CC)C1=NC(C)(C)Cc2ccccc21.O=[N+]([O-])c1cc([N+](=O)[O-])c(O)c([N+](=O)[O-])c1", "note": "(stereo not given)", "Tm shift relative to glycine control": "inactive: -7.09%"},
      {"molecule": "CC1=C2N=C(C=C3N=C(C(C)=C4[N-][C@@](C)([C@@H]5N=C1[C@](C)(CCC(=O)NC[C@@H](C)OP(=O)([O-])O[C@H]1[C@@H](O)[C@@H](n6cnc7cc(C)c(C)cc76)O[C@@H]1CO)[C@H]5CC(N)=O)[C@@](C)(CC(N)=O)[C@@H]4CCC(N)=O)[C@@](C)(CC(N)=O)[C@@H]3CCC(N)=O)C(C)(C)[C@@H]2CCC(N)=O.[C-]#N.[Co+3]", "Tm shift relative to glycine control": "inactive: 1.75%"},
      {"molecule": "O=[N+]([O-])c1cc([N+](=O)[O-])c(Nc2nnnn2CCO)c([N+](=O)[O-])c1", "Tm shift relative to glycine control": "inactive: -12.8%"},
      {"molecule": "COc1ccccc1OP(C)(=O)Nc1c(C)cccc1C", "note": "(stereo not given)", "Tm shift relative to glycine control": "inactive: -0.17%"},
      {"molecule": "CN1CCCCC1COC(=O)C1(O)c2ccccc2CCc2ccccc21", "note": "(stereo not given)", "Tm shift relative to glycine control": "inactive: 1.56%"},
      {"molecule": "CCCOc1ccc(NP(C)(=O)Oc2ccc(Cl)cc2)cc1", "note": "(stereo not given)", "Tm shift relative to glycine control": "inactive: 1.19%"},
      {"molecule": "CP(=O)(Nc1ccc(SC(F)(F)F)cc1)Oc1ccccc1", "note": "(stereo not given)", "Tm shift relative to glycine control": "inactive: 0.39%"},
      {"molecule": "O=[N+]([O-])c1cc([N+](=O)[O-])c(-n2nnc3ccccc32)c([N+](=O)[O-])c1", "Tm shift relative to glycine control": "inactive: -17.5%"},
      {"molecule": "O=[N+]([O-])c1cc([N+](=O)[O-])c(-c2cnn(-c3ccccc3)c2)c([N+](=O)[O-])c1", "Tm shift relative to glycine control": "inactive: 3.02%"},
      {"molecule": "Cc1nc2ccc3ccccc3c2s1.O=[N+]([O-])c1cc([N+](=O)[O-])c(O)c([N+](=O)[O-])c1", "Tm shift relative to glycine control": "inactive: -26.8%"},
      {"molecule": "CP(=O)(Oc1ccccc1)OC(c1ccccc1)C(F)(F)F", "note": "(stereo not given)", "Tm shift relative to glycine control": "inactive: -0.24%"},
      {"molecule": "Cc1cccc(C)c1OP(C)(=O)Nc1ccc(SC(F)(F)F)cc1", "note": "(stereo not given)", "Tm shift relative to glycine control": "inactive: 0.82%"},
      {"molecule": "CP(=O)(Nc1ccc(SC(F)(F)F)cc1)Oc1ccc(Cl)cc1", "note": "(stereo not given)", "Tm shift relative to glycine control": "inactive: -6.43%"},
      {"molecule": "Cc1cc(C)cc(OP(C)(=O)Nc2ccc(SC(F)(F)F)cc2)c1", "note": "(stereo not given)", "Tm shift relative to glycine control": "inactive: -2.17%"},
      {"molecule": "CP(=O)(NC(=O)Nc1ccccc1)Oc1ccccc1", "note": "(stereo not given)", "Tm shift relative to glycine control": "inactive: 0.18%"},
      {"molecule": "CCc1ccc(OP(C)(=O)N2CCN(c3ccc([N+](=O)[O-])cc3)CC2)cc1", "note": "(stereo not given)", "Tm shift relative to glycine control": "inactive: 3.12%"},
      {"molecule": "CCOP(C)(=S)SCC(=O)NC(C)C(=O)O", "note": "(stereo not given)", "Tm shift relative to glycine control": "inactive: 0.16%"},
      {"molecule": "CCOC(=O)c1ccc(NP(C)(=O)Oc2ccc(OC)cc2)cc1", "note": "(stereo not given)", "Tm shift relative to glycine control": "inactive: -0.39%"},
      {"molecule": "O=[N+]([O-])c1cc([N+](=O)[O-])c(O)c([N+](=O)[O-])c1.c1ccc(Oc2ccncc2)cc1", "Tm shift relative to glycine control": "inactive: -3.42%"},
      {"molecule": "CP(=O)(Nc1ccccn1)Oc1ccc(Cl)cc1", "note": "(stereo not given)", "Tm shift relative to glycine control": "inactive: 1.42%"},
      {"molecule": "CP(=S)(Nn1cnnc1)Oc1ccccc1", "note": "(stereo not given)", "Tm shift relative to glycine control": "inactive: -2.53%"},
      {"molecule": "COc1ccccc1OP(C)(=O)Nc1ccccc1", "note": "(stereo not given)", "Tm shift relative to glycine control": "inactive: -1.55%"},
      {"molecule": "CP(=O)(Nc1ccccc1Br)Oc1ccccc1", "note": "(stereo not given)", "Tm shift relative to glycine control": "inactive: 5.23%"},
      {"molecule": "O=[N+]([O-])c1cc([N+](=O)[O-])c(Nc2cccnc2)c([N+](=O)[O-])c1", "Tm shift relative to glycine control": "inactive: -37.4%"},
      {"molecule": "Cc1cccc(C)c1OP(C)(N)=O", "note": "(stereo not given)", "Tm shift relative to glycine control": "inactive: -0.23%"},
      {"molecule": "CC(C)(C)c1ccc(OP(C)(=O)Nc2ccc(SC(F)(F)F)cc2)cc1", "note": "(stereo not given)", "Tm shift relative to glycine control": "inactive: -4.56%"},
      {"molecule": "O=[N+]([O-])c1ccc2c(c1)C=Nc1ccccc1O2", "Tm shift relative to glycine control": "inactive: 0.42%"},
      {"molecule": "CCOC(=O)c1ccc(NP(C)(=O)Oc2ccccc2)cc1", "note": "(stereo not given)", "Tm shift relative to glycine control": "inactive: -1.52%"},
      {"molecule": "Cc1ccc(NP(C)(=O)Oc2ccccc2)c(C)c1", "note": "(stereo not given)", "Tm shift relative to glycine control": "inactive: -0.72%"},
      {"molecule": "COc1ccccc1OP(C)(=O)Nc1ccc(C)cc1", "note": "(stereo not given)", "Tm shift relative to glycine control": "inactive: 0.35%"},
      {"molecule": "COc1ccc(OP(C)(=O)Nc2cccc(F)c2)cc1", "note": "(stereo not given)", "Tm shift relative to glycine control": "inactive: -0.26%"},
      {"molecule": "COc1ccccc1OP(C)(=O)Nc1cc(Cl)ccc1C", "note": "(stereo not given)", "Tm shift relative to glycine control": "inactive: -2.33%"},
      {"molecule": "Cc1cc(C)cc(OP(C)(N)=O)c1", "note": "(stereo not given)", "Tm shift relative to glycine control": "inactive: 1.48%"},
      {"molecule": "CCN(CC)CCCOC(=O)C(O)(c1ccccc1)c1ccccc1", "Tm shift relative to glycine control": "inactive: -1.91%"}
    ]}
  ]
}
